In patent publication US20210148907A1:

Target: Flag-tagged full length BCL10 (human) (UniProt O95999)
Test: cell-based or functional assay

“Death-associated protein 3 (DAP3) (from UniProt P51398 22-398)” was tested, and the fold activation of NF-κB by transfected BCL10 in DAP-3 knocked-down Jurkat cells was 3.5 fold, the fold activation of NF-κB by transfected BCL10 in Jurkat cells in the absence of siDAP-3 was 9.3 fold and the increase of the cytochrome c band in cytosolic fractions of DAP3-depleted against non-depleted HeLa cells transfected with Flag-BCL10 (immunoblot) was 30%. It also gave a percent apoptotic HeLa cells, DAP3 depleted by siDAP3, 0.2 µg Flag-BCL10 construct of 25.6%, a percent apoptotic HeLa cells, DAP3 depleted by siDAP3, 1.0 µg Flag-BCL10 construct of 49.3% and a percent dead HeLa cells, transfections lacking the DAP3 silencer, 0.2 µg Flag-BCL10 construct of 17.6%. The percent dead HeLa cells, transfections lacking the DAP3 silencer, 1.0 µg Flag-BCL10 construct was 36.7%.
